Values quoted from earlier work as cited in PMC4474859, “Structure of Importin-α from a Filamentous Fungus in Complex with a Classical Nuclear Localization Signal” (PLoS ONE, 2015).

Target: MmImpα
Conditions: minor site of MmImpα; ITC; read-out: Kd, hPLSCR4 NLS peptide, MmImpα
Source text: Affinity assays between NLS peptides and Impα proteins have been performed based in indirect affinity measurements, using Surface Plasmon Resonance (SPR), and ITC [19, 38, 55]. Indirect affinity measurements between NLSs and Impα proteins reported dissociation constants in the nM range and permitted the comparison among these molecules. SPR experiments was only able to estimate the peptide-protein affinity in the μM range which was lately confirmed by ITC experiments. The comparison between ITC analysis of MmImpα/SV40NLS [19] and NcImpα/SV40NLS is consist ...

Kd: 48.7 ± 6.5 µM
Sequence: GSIIRKWN [hPLSCR4 NLS peptide]
